Experimental data from ChEMBL document CHEMBL6096662, “Discovery and structure-activity relationship study of nicotinamide derivatives as DNA demethylase ALKBH2 inhibitors” (Eur J Med Chem, 2025).
Calls of active or inactive are those of the source.

Tests used:
[1] = target: T1, DNA oxidative demethylase ALKBH2 (Homo sapiens) (UniProt Q6NS38); test: Induction of thermal stabilization of ALKBH2 (56 to 261 residues)(unknown origin) assessed as change in melting temperature by DSF assay; conditions: dose 0.78-200 µM
T1 sequence (whole entry): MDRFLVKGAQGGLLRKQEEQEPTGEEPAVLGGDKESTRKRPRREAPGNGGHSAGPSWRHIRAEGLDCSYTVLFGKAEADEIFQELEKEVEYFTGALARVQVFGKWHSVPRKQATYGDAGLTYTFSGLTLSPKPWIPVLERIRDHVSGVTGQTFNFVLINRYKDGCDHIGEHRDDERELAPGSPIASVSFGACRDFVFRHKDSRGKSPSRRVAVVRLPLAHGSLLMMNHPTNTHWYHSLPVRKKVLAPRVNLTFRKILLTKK

[2] = target: T1, DNA oxidative demethylase ALKBH2 (Homo sapiens); test: Stabilization of mCherry-fused Flag-tagged ALKBH2 (unknown origin) transfected in human U87 cells at 5 uM incubated for 12 hrs at 44 to 50 degreeC by CETSA; type: cell-based
[3] = system: U-87MG ATCC; test: Upregulation of DNA 3meC level in human U87 cells ast 5 uM incubated for 48 hrs by Dot blot assay; type: functional, cell-based
[4] = system: U-87 MG; test: Induction of apoptosis in human U87 cells assessed as increase in Bax mRNA level incubated for 48 hrs by RT-qPCR analysis; type: functional, cell-based; conditions: U-87MG ATCC, dose 1-10 µM
[5] = system: U-87 MG; test: Induction of apoptosis in human U87 cells assessed as decrease in Bcl-2 mRNA level incubated for 48 hrs by RT-qPCR analysis; type: functional, cell-based; conditions: U-87MG ATCC, dose 1-10 µM
[6] = system: U-87 MG; test: Induction of apoptosis in human U87 cells assessed as decrease in BMI1 mRNA level incubated for 48 hrs by RT-qPCR analysis; type: functional, cell-based; conditions: U-87MG ATCC, dose 1-10 µM
[7] = system: U-87 MG; test: Induction of apoptosis in human U87 cells assessed as decrease in PDGFB mRNA level incubated for 48 hrs by RT-qPCR analysis; type: functional, cell-based; conditions: U-87MG ATCC, dose 1-10 µM
[8] = system: U-87 MG; test: Induction of apoptosis in human U87 cells assessed as decrease in Bcl-xL level at 1 to 10 uM incubated for 48 hrs by Western blot analysis; type: functional, cell-based; conditions: U-87MG ATCC, dose 1-10 µM
[9] = system: U-87 MG; test: Induction of apoptosis in human U87 cells assessed as decrease in Bcl-2 level at 1 to 10 uM incubated for 48 hrs by Western blot analysis; type: functional, cell-based; conditions: U-87MG ATCC, dose 1-10 µM
[10] = system: U-87 MG; test: Induction of apoptosis in human U87 cells assessed as decrease in PARP level at 1 to 10 uM incubated for 48 hrs by Western blot analysis; type: functional, cell-based; conditions: U-87MG ATCC, dose 1-10 µM
[11] = system: U-87 MG; test: Induction of apoptosis in human U87 cells assessed as increase in cleaved caspase-3 level at 1 to 10 uM incubated for 48 hrs by Western blot analysis; type: functional, cell-based; conditions: U-87MG ATCC, dose 1-10 µM

Measured: Activity

CC(C)(C)C(NC(=O)c1ccc(-n2cc(C(=O)O)cn2)nc1)c1ccccc1 (stereo not drawn)
active: [1] Dose-dependent-effect | [2] | [3]

CCOC(=O)c1cnn(-c2ccc(C(=O)NC(c3ccccc3)C(C)(C)C)cn2)c1 (stereo not drawn)
active: [2] | [3] | [4] Dose-dependent-effect | [5] Dose-dependent-effect | [6] Dose-dependent-effect | [7] Dose-dependent-effect | [8] | [9] | [10] | [11]
